This is an account of results in patent publication US9718825B2, “N-(4-(azaindazol-6-yl)-phenyl)-sulfonamides and their use as pharmaceuticals” (priority 2013, dated 2017).

Sequences of proteins named here, by UniProt entry; tags and fusion partners are left off.
UniProt O00141, whole entry: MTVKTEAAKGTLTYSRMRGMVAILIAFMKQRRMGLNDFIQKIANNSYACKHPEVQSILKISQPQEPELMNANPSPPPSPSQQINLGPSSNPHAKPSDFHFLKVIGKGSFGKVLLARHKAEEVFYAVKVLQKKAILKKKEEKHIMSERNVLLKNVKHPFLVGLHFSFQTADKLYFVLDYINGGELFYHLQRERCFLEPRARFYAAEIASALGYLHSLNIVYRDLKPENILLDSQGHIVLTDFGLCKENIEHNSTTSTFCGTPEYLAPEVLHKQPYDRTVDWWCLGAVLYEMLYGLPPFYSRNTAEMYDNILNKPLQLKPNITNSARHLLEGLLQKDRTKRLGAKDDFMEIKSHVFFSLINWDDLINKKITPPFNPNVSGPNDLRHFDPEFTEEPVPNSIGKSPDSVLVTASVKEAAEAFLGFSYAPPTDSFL

Bounds are passed on as bounds.

For assay [1], the system named is collagen type X (Col10a1) expression in mouse chondrogenic ATDC5 cells. In words: Chondrocyte hypertrophic differentiation in mouse chondrogenic ATDC5 cells (collagen type X expression). The class given is cell-based. Particulars: read-out: IC50 values for the inhibition of collagen type X expression in mouse chondrogenic ATDC5 cells; Col10a1 expression by quantitative real-time PCR after two weeks of cell culture. From the text:
D) Determination of the effect on chondrocyte hypertrophic differentiation in mouse chondrogenic ATDC5 cells
The ATDC5 cell assay was used as in vitro model to determine the effects of the compounds of the invention on chondrocyte hypertrophic differentiation by monitoring the expression levels of collagen type X (Col10a1) as specific marker of chondrocyte hypertrophy.
Background: ATDC5 cells are a clonal mouse embryonic cell line derived from multipotent AT805 teratocarcinoma cells (Atsumi, T. et al., A chondrogenic cell line derived from a differentiating culture of AT805 teratocarcinoma cells, Cell Differ. Dev. 1990, 30, 109-116). The cells can undergo insulin-dependent chondrogenic cell differentiation entailing distinct differentiation stages starting from an undifferentiated, subconfluent stage, a condensation stage, a cartilage nodule formation stage and a calcification stage within 45 days of in vitro culture. Chondrogenic differentiation can be shown by measuring the expression of the cartilage main collagen (Col2a1) and aggrecan (AGC1) and glycosaminoglycan-staining with Alcian Blue within two weeks after insulin-triggered differentiation, and hypertrophic differentiation can be monitored by the expression of collagen type X (Col10a1), a specific marker of chondrocyte hypertrophy within 21 days of in vitro culture. (Shukunami, C. et al., Chondrogenic Differentiation of Clonal Mouse Embryonic Cell Lne ATDC5 In Vitro: Differentiation-dependent Gene Expression of Parathyroid Hormone (PTH)/PTH-related Peptide Receptor, J. Cell Biol. 1996, 133, 457-468). Growth factor BMP-2 is known to stimulate cell differentiation and can stimulate early and late-phase ATDC5 differentiation (Shukunami, C. et al., Sequential Progression of the Differentiation Program by Bone Morphogenetic Protein-2 in Chondrogenic Cell Line ATDC5, Exp. Cell Res. 1998, 241, 1-11). Thyroid hormone triiodothyronine (T3) promotes hypertrophic differentiation of growth plate chondrocytes (Robson, H. et al., Thyroid Hormone Acts Directly on Growth Plate Chondrocytes to Promote Hypertrophic Differentiation and Inhibit Clonal Expansion and Cell Proliferation, Endocrinology 2000, 141, 3887-3897). Addition of BMP2 and T3 can accelerate ATDC5 hypertrophic differentiation leading to the strong induction Col10a1 expression between 10-14 days. SGK-inhibitors were added to differentiating ATDC5 cells for 14 days and Col10a1 gene expression was quantified to determine effects on chondrocyte hypertrophic differentiation.
Cell assay description: ATDC5 cells were maintained in 300 cm^2 tissue culture flasks in DMEM/Ham's F12+5% FCS supplemented with 10 μg/ml human transferrin, 30 nM sodium selenite, 50 μg/ml kanamycin and grown at 37° C. in 5% CO2 in 95% air. To initiate cell differentiation, 9.9×10^4 cells were plated in 24 well plates and grown for 2 days. Medium was exchanged with DMEM/Ham's F12+5% FCS supplemented with 10 μg/ml human transferrin, 30 nM sodium selenite, 50 μg/ml ascorbic acid and 1 μg/ml BMP2. The assay was run in triplicates, compounds were added in […], and medium changed every 2-3 days including supplementation of compound. At day 7 after initiation of cell differentiation, 1 μM T3 was used as additional supplement in the cell culture.
After two weeks of cell culture, RNA was isolated and converted to cDNA for determination of gene expression by quantitative real-time PCR. Cells were lysed in 600 μl of RLT-buffer (Qiagen) and total RNA was isolated using the RNA-easy Mini RNA isolation Kit (Qiagen) which was run on a Qiacube system (Qiagen) according to the supplier's instructions. RNA was isolated in 30 μl of pure water and the RNA content measured by UV-spectroscopy (Nanodrop, Peqlab). For cDNA synthesis 50 ng total RNA was reverse transcribed using the High Capacity cDNA Reverse Transcription Kit (Applied Biosystems, Product Number 4368813) according to the manufacturer's instructions. […]
(In general: Real-time PCR tracks product formation cycle by cycle.)

In assay [2] the target is recombinant human SGK-1 enzyme (Homo sapiens, UniProt O00141). Description: Enzymatic activity assay: SGK-1 substrate peptide phosphorylation (Caliper lab-chip mobility shift). In kind it is biochemical. Particulars: read-out: IC50 values for inhibition of SGK-1 enzymatic activity, peptide substrate 1 μM, ATP 10 μM, 60 min at 37° C.
The target in assay [3] is SGK-1 dependent phosphorylation of GSK3beta in U2OS cells (UniProt O00141). Description: SGK-1 dependent phosphorylation of GSK3beta in U2OS cells overexpressing recombinant SGK-1 and GSK3beta. The class given is cell-based, human. The conditions noted are these: read-out: IC50 values for inhibition of SGK-1 dependent phosphorylation of GSK3beta in U2OS cells, 6 h incubation, ratio of phosphorylated GSK3beta to total GSK3beta.

As to `CCOc1nc(-c2ccc(NS(=O)(=O)c3cc(OC)ccc3Cl)cc2)nc2[nH]nc(N)c12`, the figures for the IC50 in assay [1] and in assay [2] were 10 nM and 3.2 nM, respectively.
For `Cc1n[nH]c2nc(-c3ccc(NS(=O)(=O)c4cc(Cl)ccc4Cl)cc3)nc(OC3CCN(C4CCC4)CC3)c12` the same measures were 450 nM and 3.5 nM.
In the case of `Cc1nc(-c2ccc(NS(=O)(=O)c3cc(Cl)c(Cl)s3)cc2)nc2[nH]nc(N)c12`, the IC50 in assay [3] is 2400 nM; in assay [2] it was 380 nM.
Take `Cc1n[nH]c2nc(-c3ccc(NS(=O)(=O)c4cc(Cl)ccc4F)cc3)nc(OC3CC(C)(C)N(C)C(C)(C)C3)c12`: the IC50 in assay [1] is 54 nM; in assay [2] it was 2.4 nM.
In the case of `Cc1ccc(F)c(S(=O)(=O)Nc2ccc(-c3nc(OCC4CN(C(C)C)C4)c4c(C)n[nH]c4n3)cc2)c1`, the IC50 is 81 nM in assay [1] and under 0.5 nM in assay [2].
For `CCOc1nc(-c2ccc(NS(=O)(=O)c3cc(OC)ccc3F)cc2)nc2[nH]nc(C)c12` the same measures were 270 nM and 9.5 nM.
Consider `Cc1nc(-c2ccc(NS(=O)(=O)c3cc4c(cc3Cl)OCCO4)cc2)nc2[nH]nc(N)c12`, for which the results for the IC50 in assay [3] and in assay [2] were 1100 nM and under 1.5 nM, respectively.
Consider `COc1ccc(Cl)c(S(=O)(=O)Nc2ccc(-c3nc(OC4CCN(C5CCC5)CC4)c4c(C)n[nH]c4n3)cc2)c1`, for which the IC50 came out at 88 nM in assay [1] and 3.7 nM in assay [2].
On to `CCCOc1nc(-c2ccc(NS(=O)(=O)c3cc(Cl)ccc3Cl)cc2)nc2[nH]nc(N)c12`, for which the IC50 in assay [1] amounted to 140 nM; in assay [2], 48 nM.
For `COc1ccc(Cl)c(S(=O)(=O)Nc2ccc(-c3nc(OC4CCN(C(C)=O)CC4)c4c(C)n[nH]c4n3)cc2)c1` the same measures were 16 nM and 5.8 nM.
In the case of `O=S(=O)(Nc1ccc(-c2nc(C3CC3)c3cn[nH]c3n2)cc1)c1cc(Cl)ccc1F` [Example 141], the IC50 worked out at 140 nM in assay [3] and 1.2 nM in assay [2].
Take `Cc1n[nH]c2nc(-c3ccc(NS(=O)(=O)c4cc(Cl)c(F)cc4F)cc3)nc(OC3CCN(C4CCC4)CC3)c12`: the IC50 is 290 nM in assay [1] and 2.8 nM in assay [2].
`COc1ccc(Cl)c(S(=O)(=O)Nc2ccc(-c3nc(Oc4ccc(O)nc4)c4c(C)n[nH]c4n3)cc2)c1`: the IC50 in assay [1] is 90 nM; in assay [2], 2.6 nM.
Consider `Cc1n[nH]c2nc(-c3ccc(NS(=O)(=O)c4cc(Cl)ccc4C#N)cc3)nc(OC3CCC(O)CC3)c12` (centres unmarked), for which the IC50 amounted to 61 nM in assay [1], 980 nM in assay [3] and 1.1 nM in assay [2].
As for `Cc1n[nH]c2nc(-c3ccc(NS(=O)(=O)c4cc(F)ccc4F)cc3)nc(OCCCO)c12`, the IC50 in assay [1] came to 360 nM; in assay [2], 120 nM.
For `CCCOc1nc(-c2ccc(NS(=O)(=O)c3cc(OC)ccc3F)cc2)nc2[nH]nc(N)c12` the same measures were 11 nM and 2.6 nM.
Taken in the same sequence, the figures for `COc1ccc(C#N)c(S(=O)(=O)Nc2ccc(-c3nc(OC4CCN(C5CCC5)CC4)c4c(C)n[nH]c4n3)cc2)c1` were 24 nM and 3.2 nM.
For `O=S(=O)(Nc1ccc(-c2nc(OC3CCN(C4CCC4)CC3)c3cn[nH]c3n2)cc1)c1cc(F)ccc1F`, the IC50 in assay [1] was 580 nM; in assay [2], 1000 nM.
Regarding `Cc1ccc(C#N)c(S(=O)(=O)Nc2ccc(-c3nc(OCc4cn[nH]c4)c4cn[nH]c4n3)cc2)c1`, the IC50 was 5500 nM in assay [3] and under 1.5 nM in assay [2].
Regarding `CC(=O)N1CCC(Oc2nc(-c3ccc(NS(=O)(=O)c4cc(C)ccc4C#N)cc3)nc3[nH]nc(C)c23)CC1`, the IC50 in assay [1] was 120 nM; in assay [2], 3.2 nM.
As for `CCCOc1nc(-c2ccc(NS(=O)(=O)c3cc(OC)ccc3Cl)cc2)nc2[nH]nc(N)c12`, the IC50 in assay [1] came out at 37 nM; in assay [2], 4.7 nM.
Take `COc1ccc(Cl)c(S(=O)(=O)Nc2ccc(-c3nc(OC4CCN(C)CC4)c4cn[nH]c4n3)cc2)c1`: the IC50 came to 21 nM in assay [3] and 4.5 nM in assay [2].
For `Cc1ccc(C#N)c(S(=O)(=O)Nc2ccc(-c3nc(OC4CCCC(O)C4)c4c(C)n[nH]c4n3)cc2)c1` (centres unmarked) the same measures were 760 nM and 1.4 nM.
For `CC1(C)C(O)C(C)(C)C1Oc1nc(-c2ccc(NS(=O)(=O)c3cc(Cl)ccc3F)cc2)nc2[nH]ncc12` (centres unmarked) the same measures were 420 nM and 58 nM.
As to `CC(=O)N1CCC(Oc2nc(-c3ccc(NS(=O)(=O)c4cc(F)ccc4F)cc3)nc3[nH]nc(C)c23)CC1`, the results for the IC50 in assay [1] and in assay [2] were 43 nM and 2.8 nM, respectively.
With `Cc1ccc(F)c(S(=O)(=O)Nc2ccc(-c3nc(OC4CCN(CCF)CC4)c4c(C)n[nH]c4n3)cc2)c1`, the IC50 came out at 10 nM in assay [3] and 4.3 nM in assay [2].
Consider `Nc1n[nH]c2nc(-c3ccc(NS(=O)(=O)c4cc5c(cc4Cl)OCCCO5)cc3)ncc12`, for which the IC50 in assay [3] is 3500 nM; in assay [2], 6.8 nM.
For the compound `COc1ccc(F)c(S(=O)(=O)Nc2ccc(-c3nc(OCCCN)c4c(C)n[nH]c4n3)cc2)c1`, the IC50 was 85 nM in assay [3] and under 1.5 nM in assay [2].
Take `Cc1n[nH]c2nc(-c3ccc(NS(=O)(=O)c4cc(Cl)ccc4F)cc3)nc(OC3CCN(C4CCC4)CC3)c12`: the IC50 is 27 nM in assay [1] and 2.9 nM in assay [2].
In the case of `COc1ccc(Cl)c(S(=O)(=O)Nc2ccc(-c3nc(OC4CNC4)c4cn[nH]c4n3)cc2)c1`, the IC50 in assay [3] is 110 nM; in assay [2], 5.1 nM.
For `Cc1nc(-c2ccc(NS(=O)(=O)c3cscc3Cl)cc2)nc2[nH]nc(N)c12` the same measures were 890 nM and 460 nM.
For the compound `COc1ccc(F)c(S(=O)(=O)Nc2ccc(-c3nc(OC4CCN(C5CCC5)CC4)c4c(C)n[nH]c4n3)cc2)c1`, the IC50 worked out at 21 nM in assay [1] and 2.2 nM in assay [2].
